Results taken from article PMC6539809, “Development of Oxygen-Bridged Pyrazole-Based Structures as Cannabinoid Receptor 1 Ligands” (Molecules, 2019).

By UniProt entry, the sequences of proteins in these tests, tags left out.
UniProt P47746, whole entry: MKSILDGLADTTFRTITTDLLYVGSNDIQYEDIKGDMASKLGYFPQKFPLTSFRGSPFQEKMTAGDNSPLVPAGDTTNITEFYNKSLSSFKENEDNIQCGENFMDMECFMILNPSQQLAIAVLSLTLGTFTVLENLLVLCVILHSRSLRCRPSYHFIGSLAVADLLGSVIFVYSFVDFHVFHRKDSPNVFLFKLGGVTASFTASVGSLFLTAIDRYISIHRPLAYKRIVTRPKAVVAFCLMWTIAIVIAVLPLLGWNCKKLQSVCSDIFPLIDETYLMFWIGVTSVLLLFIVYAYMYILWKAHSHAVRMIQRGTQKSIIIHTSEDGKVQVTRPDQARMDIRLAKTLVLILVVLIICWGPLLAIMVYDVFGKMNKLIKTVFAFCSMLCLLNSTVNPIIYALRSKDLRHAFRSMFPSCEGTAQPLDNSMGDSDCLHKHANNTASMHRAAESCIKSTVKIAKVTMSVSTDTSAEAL

Biological target: T1, CB1Rs of mouse vas deferens (Mus musculus, UniProt P47746)
T1 construct: naturally expressed prejunctional neuronal CB1Rs; from tissue; host or cells: isolated vas deferens of male albino CD1 mice
Experiment: Isolated organ assay: electrically evoked contractions of mouse vas deferens
Conditions: concentration of 10^−7 M; data not shown

- Increase in the electrically evoked responses: about 30%
SMILES: Cc1c(C(=O)NN2CCCCC2)nn(-c2ccc(Cl)cc2Cl)c1-c1ccc(Cl)cc1 [rimonabant, N-piperidinyl-5-(4-chlorophenyl)-1-(2,4-dichlorophenyl)-4-methyl-1H-pyrazole-3-carboxamide, reference compound]
